Reference: PMC7002685, “Inhibition of vascular calcification by inositol phosphates derivatized with ethylene glycol oligomers” (Nature Communications, 2020)

What was measured:
CPP2 = assay: Competitive 18F-NaF binding assay on CPPs; parameters: species or system human; conditions: concentration 25 (unit not given)
[1] = test system: transformation of CPP1 to CPP2 in pooled human serum; assay: In vitro serum calcification propensity (T50) screening assay; type: biochemical; parameters: key: T50 in minutes (time to 50% CPP phase transition)

Structure (SMILES)	18F-NaF percentage binding to CPP2 (CPP2)	T50 ([1]; 0.3 µM, individual experiments, Fig. 2a)	T50 ([1]; 2 µM, individual experiments, Fig. 2a)	T50 ([1]; 3 µM, individual experiments, Fig. 2a)	T50 ([1]; 10 µM, individual experiments, Fig. 2a)	T50 ([1]; concentration 2 μM, one value per experiment)
NCCCC(O)(P(=O)(O)O)P(=O)(O)O [Alendronate, alendronate]	114.164%	–	–	–	–	–
O=P(O)(O)O[C@H]1[C@H](OP(=O)(O)O)[C@@H](OP(=O)(O)O)[C@H](OP(=O)(O)O)[C@@H](OP(=O)(O)O)[C@H]1OP(=O)(O)O [IP6, myo-Inositol hexakisphosphate]	–	232.833 min	232.25 min	231.233 min and 231.267 min and 231.333 min	232.967 min	232.25

Where “and” joins values, the source holds several entries; their conditions need not be identical. Equal entries are not always repeated.
